Test results from BindingDB's records for patent US10214478 (2019).

Target: Glutamate receptor ionotropic, NMDA 1 (Rattus norvegicus, UniProt P35439)
Test: Protective Effects of Compounds on Primary Cerebellum Granule Cells of Rats
Protocol: Isolated primary cerebellum granule cells of infant rats were inoculated in 96-well plates with 1.2×10^5/well by using 10% FBS+25 mM KCl+2 mM Glutamine+1% of double-antibody BME medium. After 24 hours, cytarabine with a final concentration of 10 iM was added to inhibit the proliferation of neurogliocyte cells. After the day 4, glucose with the final concentration of 5 mM was added every four days to complement energy metabolism and water evaporation of cells. The materials were placed in a cell incubator (37° C., 5% CO2) to be cultured for 10 days. A 200 iM of glutamate was used to induce the excitotoxic injury of the primary cerebellum granule cells, with test groups of normal control group, glutamate group, pretreatment groups with different memantine nitrate compounds, and pretreatment control group with memantine. In the testing groups, the compounds of NM-001, NM-002, NM-003, NM-004, NM-005, NM-008, NM-009, NM-011, NM-012 and memantine were respectively added. After pre-protection for 2 h, 200 iM of glutamate was added to induce cell damage for 24 h, and then MTT was added to culture for 4 h. […] After blending with shaking, the light absorption values under 570 nm wavelength was measured with a microplate reader, and the viability of cells was calculated. Cell viability (%)=absorbance of different groups/absorbance of the normal control group×100%.

CC12CC3CC(C)(C1)CC(N)(C3)C2 [US10214478, Compound memantine]
EC50: 2720 nM
